This is an account of results in ChEMBL document CHEMBL4251680, “Catecholic Isoquinolines from Portulaca oleracea and Their Anti-inflammatory and β2-Adrenergic Receptor Agonist Activity” (J Nat Prod, 2018).

SMILES strings stand for the structures.

In the assay the test system is RAW264.7. Kind of assay: Antiinflammatory activity in mouse RAW264.7 cells assessed as inhibition of LPS-induced nitric oxide production measured after 24 hrs by Griess assay. It counts as functional, cell-based.
Consider `CCOC(=O)CC[C@@H]1NCCc2cc(O)c(O)cc21`, for which the inhibition entry was “Dose-dependent effect”.
With `C[C@@H]1NCCc2cc(O)c(O)cc21`, the inhibition result is “Dose-dependent effect”.
Then `OCc1ccc(C2=NCCc3cc(O)c(O)cc32)o1`, with “Dose-dependent effect”; and `CC1=NCCc2cc(O)c(O)cc21`, with “Dose-dependent effect”; and `Oc1cc2c(cc1O)CCN=C2`, with “Dose-dependent effect”.
As for `NCCc1ccc(O)c(O)c1S(=O)(=O)O`, the inhibition entry was “Dose-dependent effect”.
Turning to `CC(C)C[C@H]1NCCc2cc(O)c(O)cc21`, the inhibition entry is “Dose-dependent effect”.
As to `Oc1cc2c(cc1O)[C@@H](Cc1ccccc1)NCC2`, the inhibition entry is “Dose-dependent effect”.
The value for `O=C1CC[C@H]2c3cc(O)c(O)cc3CCN12` was “Dose-dependent effect”; that for `O=C1NCCc2cc(O)c(O)cc21` was “Dose-dependent effect”.
Then `O=C1c2cc(O)c(O)cc2CCn2cccc21`, with “Dose-dependent effect”; and `Oc1cc2c(cc1O)C(c1ccco1)=NCC2`, with “Dose-dependent effect”.
As for `Oc1cc2c(cc1O)CC[N+](Cc1ccco1)=C2`, the inhibition result is “Dose-dependent effect”.
